Yeast mating assay 1: variants of the scFv Ab-14

Target peptide (SARS-CoV-2 spike, HR2 region): PDVDLGDISGINAS

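Phage display of a naive human antibody library on the peptide gave the parent. The library (AAYL50) carries one to three amino acid substitutions per variant, with no insertions or deletions. The assay is AlphaSeq: two haploid yeast populations carry antibody and antigen on their surface. After mating in shaken culture at 30 °C for 16 h, diploids were selected and their barcode pairs sequenced. Scores were corrected for input abundance and mapped to Kd with protein pairs of known affinity run in the same pool. Mating was done three times.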

Ab-14 is the parent antibody, in scFv form: VH, then a 15-residue (Gly4Ser)3 linker, then VL. The heavy chain is unchanged in all variants.
VH: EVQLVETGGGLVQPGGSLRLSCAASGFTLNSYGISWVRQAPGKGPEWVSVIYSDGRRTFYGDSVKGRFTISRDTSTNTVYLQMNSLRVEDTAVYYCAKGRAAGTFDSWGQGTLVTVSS
VL: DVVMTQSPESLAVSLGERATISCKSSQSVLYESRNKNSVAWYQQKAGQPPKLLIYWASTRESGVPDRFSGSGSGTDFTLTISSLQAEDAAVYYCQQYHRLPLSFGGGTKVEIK

Each variant's VL is given in full. All variants listed here change L100 of the VL, counted from its first residue. Values are log10 of the apparent Kd in nM; lower means stronger binding. Averages over replicates are reported, and they cover detected replicates only. An entry "not detected" has no value in the source: the pair was not observed among the diploids in any replicate. This suggests poor binding but is not conclusive. Three control strains display no target. For library AAYL50, 18% of the pairings with them gave a signal, with a median of 4.19 and one signal in twenty below 2.99, so weak values seen in few replicates may be background. For each scFv, signals with the empty controls are counted beside the result.

VL,mean log10 Kd (nM),seen in,control signals
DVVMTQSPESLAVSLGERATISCKSSQSVLYEERNKNSVAWYQQKAGQPPKLLIYWAGTRESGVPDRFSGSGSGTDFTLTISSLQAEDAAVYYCQQYHREPLSFGGGTKVEIK,4.15,1/3,1/9
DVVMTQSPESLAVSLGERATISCKSSQSVLYVSRNKNSVAWYQQKAGQPPKLLIYWASTRESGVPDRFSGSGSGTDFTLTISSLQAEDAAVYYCQQYHRTPLDFGGGTKVEIK,not detected,0/3,0/9
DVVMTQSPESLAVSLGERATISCKSSQSVLYESRNKNSVAWYQQKAGQPPKLLIYWASTRESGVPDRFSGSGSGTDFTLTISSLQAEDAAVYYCQQYHVTPASFGGGTKVEIK,not detected,0/3,0/9
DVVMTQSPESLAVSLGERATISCKSSQSVLYESRNKNDVAWYQQKAGQPPKLLIYWASNRESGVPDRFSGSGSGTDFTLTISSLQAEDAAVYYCQQYHRVPLSFGGGTKVEIK,3.78,2/3,2/9
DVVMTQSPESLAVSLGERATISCKSSQSVLYESRNKNSVAWYQQKAGQPPKLLIYWASTRESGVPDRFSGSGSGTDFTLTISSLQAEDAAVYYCQQYHRFPLSFGGGTKVEIK,4.70,2/3,2/9
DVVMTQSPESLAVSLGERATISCKSSQSVIYESRNKNSVAWYQQKAGQPPKLLIYWASTRESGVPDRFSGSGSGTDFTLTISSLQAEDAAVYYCQQYHRKPLSFGGGTKVEIK,2.11,3/3,2/9
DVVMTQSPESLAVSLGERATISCKSSQSVLYASRNKNSVAWYQQKAGQPPKLLIYWASTRMSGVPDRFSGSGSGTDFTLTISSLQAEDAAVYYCQQYHRDPLSFGGGTKVEIK,0.81,3/3,0/9
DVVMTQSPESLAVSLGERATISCKSSQSWLYESRNKNSVAWYQQKAGQPPKLLIYWASTRESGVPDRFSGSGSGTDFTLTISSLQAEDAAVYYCYQYHRQPLSFGGGTKVEIK,0.40,3/3,3/9
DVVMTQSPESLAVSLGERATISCKSSQSVLYESRNKNSWAWYQQKAGQPPKLLIYWACTRESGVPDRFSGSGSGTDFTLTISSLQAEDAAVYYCQQYHRSPLSFGGGTKVEIK,not detected,0/3,0/9
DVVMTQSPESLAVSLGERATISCKSSQSVLYESRNKNSVAWYQQKAGQPPKLLIYLASTRESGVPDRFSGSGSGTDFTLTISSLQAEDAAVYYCQVYHREPLSFGGGTKVEIK,4.16,1/3,1/9
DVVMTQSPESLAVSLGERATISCKSSQSVLYESRNKNSVAWYQQKAGQPPKLLIYWASTRESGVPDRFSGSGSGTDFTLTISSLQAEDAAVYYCQQYKRDCLSFGGGTKVEIK,not detected,0/3,1/9
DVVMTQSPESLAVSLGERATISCKSSQSVLYESRNKNSVGWYQQKAGQPPKLLIYWASTRESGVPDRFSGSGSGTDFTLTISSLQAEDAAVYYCQQYHRVPMSFGGGTKVEIK,4.56,1/3,5/9
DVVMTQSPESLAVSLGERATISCKSWQSVLYPSRNKNSVAWYQQKAGQPPKLLIYWASTRESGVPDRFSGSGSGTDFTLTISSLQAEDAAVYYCQQYHRVPLSFGGGTKVEIK,4.36,1/3,3/9
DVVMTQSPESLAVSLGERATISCKSSASVLYESRNTNSVAWYQQKAGQPPKLLIYWASTRESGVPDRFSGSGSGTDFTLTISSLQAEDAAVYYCQQYHRGPLSFGGGTKVEIK,not detected,0/3,0/9
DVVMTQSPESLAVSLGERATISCKSSQSVLYESRNKNSVAWYQQKAGQPPKLLIYWASTRESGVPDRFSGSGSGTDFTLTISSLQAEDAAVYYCQQWHRQPVSFGGGTKVEIK,4.86,3/3,2/9
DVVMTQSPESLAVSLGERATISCKSSQSVLYESRNKNSVAWYQQKAGQPPKLLIYWASTRESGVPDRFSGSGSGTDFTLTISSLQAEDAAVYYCQQYHRAPISFGGGTKVEIK,2.03,3/3,5/9
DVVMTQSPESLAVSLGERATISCKSSQSVLYESRNKNLVAWYQQKAGQPPKLLIYWASFRESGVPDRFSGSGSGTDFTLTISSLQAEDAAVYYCQQYHRCPLSFGGGTKVEIK,not detected,0/3,0/9
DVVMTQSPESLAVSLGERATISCKSSQSTLYESRNKNDVAWYQQKAGQPPKLLIYWASTRESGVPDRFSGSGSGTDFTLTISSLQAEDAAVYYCQQYHRYPLSFGGGTKVEIK,3.34,2/3,0/9
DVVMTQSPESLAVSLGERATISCKSSQSVLYESRNKNSVAWYQQKAGQPPKLLIYWASDRESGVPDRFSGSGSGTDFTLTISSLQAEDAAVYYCQMYHRNPLSFGGGTKVEIK,not detected,0/3,0/9
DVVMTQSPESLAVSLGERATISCKSSGSVLYESRNKNSVAWYQQKAGQPPKLLIYAASTRESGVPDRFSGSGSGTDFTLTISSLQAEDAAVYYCQQYHRKPLSFGGGTKVEIK,not detected,0/3,1/9
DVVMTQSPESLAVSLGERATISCKSSQSVLYESRNKNSVAWYQQKAGQPPKLLIYWATQRESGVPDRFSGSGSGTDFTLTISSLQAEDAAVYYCQQYHRPPLSFGGGTKVEIK,2.15,3/3,4/9
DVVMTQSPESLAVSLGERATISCKSSQSVLYESRNKNSVAWYQQKAGQPPKLLIYWASTRESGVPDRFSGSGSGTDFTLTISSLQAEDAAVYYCQQMHRRPVSFGGGTKVEIK,5.09,1/3,2/9
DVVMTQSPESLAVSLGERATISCKSSQSVLYESRNKNSVAWYQQKAGQPPKLLIYWYSTRESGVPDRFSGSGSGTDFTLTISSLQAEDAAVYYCQQYHRRPLSFGGGTKVEIK,4.23,2/3,2/9
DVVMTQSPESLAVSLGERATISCKSSQSVLYESRNNNSVAWYQQKAGQPPKLLIYWASTRESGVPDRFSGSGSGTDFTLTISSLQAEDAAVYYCQQYHRIPLSFGGGTKVEIK,2.30,3/3,1/9
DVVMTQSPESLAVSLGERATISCKSSQSVLYESRNCNSVAWYQQKAGQPPKLLIYWASTRESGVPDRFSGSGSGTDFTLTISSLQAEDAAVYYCQQYHNVPLSFGGGTKVEIK,4.82,2/3,2/9

From the list, the first 3 with no signal in any replicate:

VL,mean log10 Kd (nM),seen in,control signals
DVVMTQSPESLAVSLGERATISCKSSQSVLYVSRNKNSVAWYQQKAGQPPKLLIYWASTRESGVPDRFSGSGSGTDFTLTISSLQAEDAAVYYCQQYHRTPLDFGGGTKVEIK,not detected,0/3,0/9
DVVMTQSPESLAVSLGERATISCKSSQSVLYESRNKNSVAWYQQKAGQPPKLLIYWASTRESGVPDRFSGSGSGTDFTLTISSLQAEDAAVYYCQQYHVTPASFGGGTKVEIK,not detected,0/3,0/9
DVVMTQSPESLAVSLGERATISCKSSQSVLYESRNKNSWAWYQQKAGQPPKLLIYWACTRESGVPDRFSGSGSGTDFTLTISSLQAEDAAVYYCQQYHRSPLSFGGGTKVEIK,not detected,0/3,0/9

Reference: Engelhart et al. 2022, doi:10.1038/s41597-022-01779-4. File: FLAb, binding data.